Data published in patent publication US5843900A (priority 1995, dated 1998).

Amino acid sequences for entries named in this document (tags omitted).
UniProt P35372, whole entry, looked up: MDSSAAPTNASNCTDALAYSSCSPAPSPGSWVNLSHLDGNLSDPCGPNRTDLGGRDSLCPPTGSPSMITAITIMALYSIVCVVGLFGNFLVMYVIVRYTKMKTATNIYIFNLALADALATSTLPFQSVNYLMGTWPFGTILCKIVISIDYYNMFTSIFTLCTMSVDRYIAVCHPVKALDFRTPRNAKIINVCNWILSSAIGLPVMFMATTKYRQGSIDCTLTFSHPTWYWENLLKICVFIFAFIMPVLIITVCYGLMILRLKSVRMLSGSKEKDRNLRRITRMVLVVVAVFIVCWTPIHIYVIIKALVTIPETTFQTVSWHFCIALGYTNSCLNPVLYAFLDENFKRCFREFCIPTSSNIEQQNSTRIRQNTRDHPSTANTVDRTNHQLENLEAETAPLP
UniProt O70526, whole entry, looked up: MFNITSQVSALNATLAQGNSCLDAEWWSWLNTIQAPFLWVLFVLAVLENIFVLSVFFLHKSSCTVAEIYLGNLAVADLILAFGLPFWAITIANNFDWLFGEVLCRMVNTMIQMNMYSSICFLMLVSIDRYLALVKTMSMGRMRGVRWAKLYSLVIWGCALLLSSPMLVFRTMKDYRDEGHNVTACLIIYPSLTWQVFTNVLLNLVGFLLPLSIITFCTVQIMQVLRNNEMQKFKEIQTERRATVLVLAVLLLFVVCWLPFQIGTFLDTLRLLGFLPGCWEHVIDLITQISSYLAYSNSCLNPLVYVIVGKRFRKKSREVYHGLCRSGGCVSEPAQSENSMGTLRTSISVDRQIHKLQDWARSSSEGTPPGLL

Legend:
[1] = test system: carrageenan induced edema in the rat hind paw; assay: Rat Carrageenan Paw Edema; assay type: in vivo; details: s.c. 30 min before carrageenan 1% subplantar, 0-6 h
[2] = test system: mustard oil induced neurogenic inflammation in the rat hind paw; assay: Mustard Oil-induced neurogenic inflammation in the Rat; assay type: in vivo; details: compared to saline controls, at the doses used
[3] = test system: response time of mice exposed to a hot surface; assay: Mouse Hot Plate; details: 55° C. surface, up to 240 minutes, all doses studied
[4] = test system: paw licking following formalin injection; assay: Mouse Formalin Test; assay type: in vivo
human mu receptor = human mu receptor (Homo sapiens, UniProt P35372); assay: Human Mu Receptor Binding (3H-DAMGO, human clone membranes); details: 3H-DAMGO 5nM, CHO-K1 clone hmu5 membranes
B2 receptor = B2 receptor (Cavia porcellus, UniProt O70526); assay: B2 receptor antagonist activity on guinea pig ileum (inhibition of myotropic activity of bradykinin, pA2); details: first part of Table I, Schild pA2 against bradykinin

| Structure (SMILES) | effect on carrageenan edema response [1] | effect on mustard oil edema response (Evan's blue dye) [2] | time spent on the hot plate (response time) [3] | Straub tail effect (centrally mediated) ([4]; mice in formalin test, all doses) | mean ED50, first phase response (50% reduction of paw licking) ([4]; mouse, s.c. 30 minutes before formalin, early phase 0-5 min) [µmol/kg] | mean ED50, second phase response (50% reduction of paw licking) ([4]; mouse, s.c. 30 minutes before formalin, late phase 15-30 min) [µmol/kg] | effect on first and second phase responses (paw licking time) ([4]; mouse, s.c., compared to vehicle control, CP-0597 at 0.3-10 mg/kg s.c.) | Mu Binding Human Clone (human mu receptor) | BK2, pA2 (GPA) (B2 receptor) |
| --- | --- | --- | --- | --- | --- | --- | --- | --- | --- |
| CN1CC[C@]23c4c5ccc(O)c4O[C@H]2[C@@H](O)CC[C@H]3[C@H]1C5 | little to no effect | without effect | dose dependent increase | a typical Straub tail effect | 6.7 | 4.3 | dose-dependent inhibition |  |  |
| CN1CC[C@]23c4c5ccc(O)c4O[C@H]2[C@@H](OCCCc2cccc(C(=O)N[C@H](CCCNC(=N)N)C(=O)N[C@@H](CCCNC(=N)N)C(=O)N4CCC[C@H]4C(=O)N4C[C@H](O)C[C@H]4C(=O)NCC(=O)N[C@@H](Cc4cccs4)C(=O)N[C@@H](CO)C(=O)N4Cc6ccccc6C[C@@H]4C(=O)N(CC(=O)N[C@@H](CCCNC(=N)N)C(=O)O)C4CCCCC4)c2)C=C[C@H]3[C@H]1C5 [CP 902] |  |  |  |  |  |  |  | 8.4 | 8.7 |
| CN1CC[C@]23c4c5ccc(O)c4O[C@H]2[C@@H](OCCCc2ccc(C(=O)N[C@H](CCCNC(=N)N)C(=O)N[C@@H](CCCNC(=N)N)C(=O)N4CCC[C@H]4C(=O)N4C[C@H](O)C[C@H]4C(=O)NCC(=O)N[C@@H](Cc4cccs4)C(=O)N[C@@H](CO)C(=O)N4Cc6ccccc6C[C@@H]4C(=O)N(CC(=O)N[C@@H](CCCNC(=N)N)C(=O)O)C4CCCCC4)cc2)C=C[C@H]3[C@H]1C5 [CP 905] |  |  |  |  |  |  |  | 8.3 | 7.9 |
| CN1CC[C@]23c4c5ccc(O)c4O[C@H]2[C@@H](OCc2ccc(C(=O)N[C@H](CCCNC(=N)N)C(=O)N[C@@H](CCCNC(=N)N)C(=O)N4CCC[C@H]4C(=O)N4C[C@H](O)C[C@H]4C(=O)NCC(=O)N[C@@H](Cc4cccs4)C(=O)N[C@@H](CO)C(=O)N4Cc6ccccc6C[C@@H]4C(=O)N(CC(=O)N[C@@H](CCCNC(=N)N)C(=O)O)C4CCCCC4)cc2)C=C[C@H]3[C@H]1C5 [CP 906] |  |  |  |  |  |  |  | 8.3 | 7.9 |
